Tested on: CR02 (colorectal carcinoma)
Test: Alamar blue viability of primary cancer cells
Format: cell-based, human
Details: primary CRC (second listed); 25 μg/ml (RXC 31.3 μM, DOX 46 μM); 96 h
Description: The Alamar blue assay was used to determine cell viability as previously described. Cells were seeded into 96-well plates at a density of 7 × 10^3 cells per well for adherent cells or 3 × 10^4 cells per well for suspended cells. The drug was added to each well after 24 h of incubation for adherent cells or immediately for suspended cells and incubated for an additional 72 h. The positive control included DOX (Laboratorio IMA S.A.I.C., Buenos Aires, Argentina) or 5-fluorouracil (5-FU, Sigma-Aldrich Co.). Each well received 100 µM resazurin (Sigma-Aldrich Co. St. Louis, MO, United States) four (for cell lines) or 24 (for primary culture) h before the end of the incubation. A SpectraMax 190 Microplate Reader (Molecular Devices, Sunnyvale, CA, USA) was used to measure absorbance at 570 and 600 nm.
CR03 (metastatic cholangiocarcinoma) CR04 (malignant papillary mesothelioma)
Figure S1. The effect of RXC on primary cancer cells. Cells were exposed to 25
μg/mL of each compound (RXC = 31.3 μM, DOX = 46 μM), and cell viability was
measured after 96 h using the Alamar blue assay. The data are presented as the
mean ± S.E.M. of four replicates. * P < 0.05 compared to CTL by one-way ANOVA
followed by Dunnett's multiple comparisons test.
(also on this page, place not known: Cell (% control) Cell viability (% control) CTL RXC DOX RXC of DOX viability of CTL) […]

SMILES: COc1cccc2c1C(=O)c1c(O)c3c(c(O)c1C2=O)C[C@@](O)(C(=O)CO)C[C@@H]3O[C@H]1C[C@H](N)[C@H](O)[C@H](C)O1 [DOX, Doxorubicin]
- reduced cell viability: 36.2%
